Results reported in paper PMC9545781 (British Journal of Clinical Pharmacology, 2022).

Experiment: Open-label clinical pharmacokinetic study of oral XBD173 and etifoxine in healthy volunteers (plasma LC-MSMS)
Format: in vivo, human
Conditions: Etifoxine multiple dosing (50mg TDS), Day 7 (2-3 hours post dose)
Protocol: This was a single centre, open‐label study enrolling 4 adult healthy volunteers (aged 35–65 y) irrespective of rs6971 genotype. Detailed inclusion and exclusion criteria are shown in the supplementary information. […] As a precaution, therefore, a long washout period was chosen. The first dose was taken at the clinical research facility and the participant was monitored for 4 hours. Subsequent doses were taken at home by the participant. On day 7, the participant returned for a final assessment. […] The PI of the study was Paul M. Matthews (DPhil, FRCP, FMedSci) who is an author on the manuscript.
Plasma samples for pharmacokinetic analysis were obtained on day 1 at 0.5, 1, 2, 3, 4 hours following the first dose. […] Plasma samples were stored at −20°C or lower until analysis. Plasma samples (25 μL) were prepared for analysis by protein precipitation with acetonitrile containing internal standard (tolbutamide; 200 μL) followed by mixing (150 rpm, 15 min) and centrifugation (1500 g, 15 min). The supernatant (50) μL was diluted with water (100 μL) and mixed (100 rpm, 15 min). […] Injection volume was 1 μL.

## CCNC1=Nc2ccc(Cl)cc2C(C)(c2ccccc2)O1 (centres unmarked) [etifoxine]
Mean (SEM)
  Plasma concentration: 13.1 (4.1) ng/mL
Participant 1
  Plasma concentration: 14.0 ng/mL
Participant 2
  Plasma concentration: 23.5 ng/mL
Participant 3
  Plasma concentration: 11.3 ng/mL
Participant 4
  Plasma concentration: 3.7 ng/mL
